From patent US12208075B2, “Antimicrobial compositions containing free fatty acids” (priority 2009, dated 2025)

Tested on: Staphylococcus aureus RN 4220
Experiment: Comparative microbicidal suspension test, free vs emulsified fatty acids
Format: cell-based

Q: How did the “viable count (log number)” value (0 Seconds at 37° C.) turn out when `CCCCCCCCCCCC(=O)O` [Free lauric acid, lauric acid] was run?
A: 7.87 log

Q: And the “viable count (log number)” value (60 Seconds at 37° C.)?
A: 7.35 log

Q: What about the “viable count (log number)” value (120 Seconds at 37° C.) of the same molecule?
A: 7.77 log

Q: What about the “viable count (log number)” value (180 Seconds at 37° C.) of the same molecule?
A: 7.41 log

Q: And the “viable count (log number)” value (240 Seconds at 37° C.)?
A: 7.98 log

Q: What about the “viable count (log number)” value (300 Seconds at 37° C.) of the same molecule?
A: 7.23 log

Q: And the “viable count (log number)” value (360 Seconds at 37° C.)?
A: 7.65 log
